# Assay results taken from US9315587B2.
# Protein sequences, listed by entry. Tags and fused reporters are not part of them. Residues count along the entry.
# UniProt P56817, 46-457 limits assumed: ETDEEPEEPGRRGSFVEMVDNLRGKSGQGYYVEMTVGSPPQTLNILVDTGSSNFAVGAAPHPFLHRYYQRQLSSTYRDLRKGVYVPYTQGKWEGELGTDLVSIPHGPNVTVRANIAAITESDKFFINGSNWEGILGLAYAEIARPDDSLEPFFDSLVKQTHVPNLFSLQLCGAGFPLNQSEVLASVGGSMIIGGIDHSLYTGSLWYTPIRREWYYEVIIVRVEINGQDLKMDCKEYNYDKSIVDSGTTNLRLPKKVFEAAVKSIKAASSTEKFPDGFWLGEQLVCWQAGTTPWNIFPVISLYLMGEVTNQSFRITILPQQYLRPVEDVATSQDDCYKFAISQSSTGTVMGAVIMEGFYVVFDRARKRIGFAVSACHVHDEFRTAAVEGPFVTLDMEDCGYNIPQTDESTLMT
# Target: recombinant human BACE-1 (Homo sapiens, UniProt P56817)
# Experiment: BACE-1 inhibition by in vitro FRET peptide cleavage assay
# Details: human recombinant BACE-1, FRET peptide, pH 4.5, 1 h, 25° C.
# Protocol: The ability of compounds of the invention to inhibit BACE-1 cleavage of APP is assessed using a fluorescent resonance energy transfer (FRET) peptide cleavage assay employing the FRET peptide HiLyte 488-Glu-Val-Asn-Leu-Asp-Ala-Glu-Phe-Lys(QXL520)-OH (Anaspec, Inc., CA, USA; Cat no. 60604-01). When intact, the amino terminal fluorophore is quenched, but upon enzymatic cleavage the fluorophore is released from quencher and fluoresces (520 nm). Assays are performed in triplicate in 96 well black plates (20 mM sodium acetate, 0.1% Triton-X-100, pH 4.5; 2.2 ng peptide per well and 25 ng/well of recombinant human BACE-1 (R & D Systems Cat no. 931-AS). The appropriate controls for enzyme activity (substrate plus enzyme, and substrate only) are employed and plates are incubated (1 h, 25° C., with activity stopped with 2.5 M sodium acetate). Compounds of the invention are added in the concentration range from 100-0.0001 μg/mL. Fluorescence 480ex/520em is measured on a Polarstar plate reader (BMG LabTechnologies, UK) and data are analysed by plotting log10 concentration of compound against percent inhibition and fitting a logistic dose response sigmoidal curve using OriginPro 8 (OriginLabs, Mass, USA).
Compound,IC50 (tested form: NH4 salt) [µg/mL],IC50 (tested form: Na salt) [µg/mL]
COc1ccc(O[C@@H]2O[C@@H](C(=O)O)[C@@H](O[C@H]3O[C@H](COS(=O)(=O)O)[C@@H](O[C@@H]4O[C@@H](C(=O)O)[C@@H](O[C@H]5O[C@H](COS(=O)(=O)O)[C@@H](O[C@@H]6O[C@@H](C(=O)O)[C@@H](O[C@H]7O[C@H](COS(=O)(=O)O)[C@@H](O[C@@H]8O[C@@H](C(=O)O)[C@@H](O[C@H]9O[C@H](COS(=O)(=O)O)[C@@H](O[C@@H]%10O[C@@H](C(=O)O)[C@@H](O[C@H]%11O[C@H](COS(=O)(=O)O)[C@@H](O)[C@H](O)[C@H]%11NC(C)=O)[C@H](O)[C@H]%10OS(=O)(=O)O)[C@H](O)[C@H]9NC(C)=O)[C@H](O)[C@H]8OS(=O)(=O)O)[C@H](O)[C@H]7NC(C)=O)[C@H](O)[C@H]6OS(=O)(=O)O)[C@H](O)[C@H]5NC(C)=O)[C@H](O)[C@H]4OS(=O)(=O)O)[C@H](O)[C@H]3NC(C)=O)[C@H](O)[C@H]2OS(=O)(=O)O)cc1,0.007,
COc1ccc(O[C@@H]2O[C@H](C(=O)O)[C@@H](O[C@H]3O[C@H](COS(=O)(=O)O)[C@@H](O[C@@H]4O[C@H](C(=O)O)[C@@H](O[C@H]5O[C@H](COS(=O)(=O)O)[C@@H](O[C@@H]6O[C@H](C(=O)O)[C@@H](O[C@H]7O[C@H](COS(=O)(=O)O)[C@@H](O[C@@H]8O[C@H](C(=O)O)[C@@H](O[C@H]9O[C@H](COS(=O)(=O)O)[C@@H](O[C@@H]%10O[C@H](C(=O)O)[C@@H](O[C@H]%11O[C@H](COS(=O)(=O)O)[C@@H](O)[C@H](O)[C@H]%11NC(C)=O)[C@H](O)[C@H]%10O)[C@H](O)[C@H]9NC(C)=O)[C@H](O)[C@H]8O)[C@H](O)[C@H]7NC(C)=O)[C@H](O)[C@H]6O)[C@H](O)[C@H]5NC(C)=O)[C@H](O)[C@H]4O)[C@H](O)[C@H]3NC(C)=O)[C@H](O)[C@H]2O)cc1,,0.66
COc1ccc(O[C@@H]2O[C@@H](C(=O)O)[C@@H](O[C@H]3O[C@H](COS(=O)(=O)O)[C@@H](O[C@@H]4O[C@@H](C(=O)O)[C@@H](O[C@H]5O[C@H](COS(=O)(=O)O)[C@@H](O[C@@H]6O[C@@H](C(=O)O)[C@@H](O[C@H]7O[C@H](COS(=O)(=O)O)[C@@H](O[C@@H]8O[C@@H](C(=O)O)[C@@H](O[C@H]9O[C@H](COS(=O)(=O)O)[C@@H](O[C@@H]%10O[C@@H](C(=O)O)[C@@H](O[C@H]%11O[C@H](COS(=O)(=O)O)[C@@H](O)[C@H](O)[C@H]%11NC(C)=O)[C@H](O)[C@H]%10O)[C@H](O)[C@H]9NC(C)=O)[C@H](O)[C@H]8O)[C@H](O)[C@H]7NC(C)=O)[C@H](O)[C@H]6O)[C@H](O)[C@H]5NC(C)=O)[C@H](O)[C@H]4O)[C@H](O)[C@H]3NC(C)=O)[C@H](O)[C@H]2O)cc1,0.53,
